# Yeast mating assay 2: variants of the scFv Ab-95

Binding partner: SARS-CoV-2 spike HR2 peptide, sequence PDVDLGDISGINAS.

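The starting antibody came from a phage panning campaign against this peptide. The library (AAYL52) carries one to three amino acid substitutions per variant, with no insertions or deletions. Affinity was read by AlphaSeq, a pooled yeast mating assay with surface-displayed partners. Pairs that bind mate more often; barcode pairs of the diploids are counted by sequencing. The ratio of observed to expected reads was calibrated, replicate by replicate, on BCL2-family standards whose Kd was known from biolayer interferometry. Each pool was mated in three replicate cultures.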

Parent: Ab-95, a human scFv built as VH, the linker GGGGSGGGGSGGGGS, VL. Only the CDRs of the light chain vary.
VH: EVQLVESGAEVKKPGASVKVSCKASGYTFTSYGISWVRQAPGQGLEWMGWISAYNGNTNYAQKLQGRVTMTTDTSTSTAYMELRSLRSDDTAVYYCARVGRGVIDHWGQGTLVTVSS
VL: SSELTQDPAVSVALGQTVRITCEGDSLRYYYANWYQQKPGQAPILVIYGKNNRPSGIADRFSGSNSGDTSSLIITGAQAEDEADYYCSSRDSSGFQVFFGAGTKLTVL

Substitutions are numbered in sequence along the VL above, starting at 1 (not Kabat). The read-out is the apparent dissociation constant on a log10 scale (nM): the lower, the stronger. A mean of the replicates is given; it leaves out those without a signal. An entry "not detected" has no value in the source: the pair was not observed among the diploids in any replicate. This suggests poor binding but is not conclusive. As a blank, each scFv also met three strains without target: over library AAYL52, 28% of these pairings were detected, typically at 3.91 and seldom below 2.90.

mean log10 Kd (nM),seen in,changes
3.83,1 of 3,Y31P+D91P+Q96T
2.82,3 of 3,G24M+L27F+Y30R
not detected,0 of 3,G24D+P54F+S88Q
2.99,3 of 3,E23N+Y29M+F98E
3.60,1 of 3,G24F+Y30K+N51I
1.77,3 of 3,G24F+Y30Q+S89D
4.23,1 of 3,N51M+S93V+F95E
4.09,2 of 3,D25V+S88I+F98V
2.51,3 of 3,D25K+Y29C+Y30D
3.96,3 of 3,Y31Q+R53E+P54C
3.63,2 of 3,P54A+S93P+G94V
not detected,0 of 3,D25M+N33D+S88F
1.84,3 of 3,E23S+S92E
2.12,3 of 3,D25G+N52M+S92W
1.52,3 of 3,A32L+N51V+S92E
4.22,1 of 3,G24H+N51E+N52I
3.74,1 of 3,Y30M+N33F+R53M
not detected,0 of 3,G24V+S26C+L27T
3.65,1 of 3,A32E+N33Y+G49N
4.14,2 of 3,S26H+G49F+F98S
4.51,1 of 3,F95D+Q96M
3.07,3 of 3,K50T+S89A+F95G
2.95,3 of 3,P54A+S55W+D91G
2.21,3 of 3,Y29N+P54H
1.82,3 of 3,D25Y+N52E+D91G
2.67,3 of 3,R28W+S93E
3.52,2 of 3,K50E+S89Q
2.52,3 of 3,D25T+Y29E+S89R
not detected,0 of 3,S26L+G49V+N51S
1.70,3 of 3,Y29H+Y31M+R90L
not detected,0 of 3,R53C+S89Y
2.26,3 of 3,Y29N+P54D+F98S
3.25,1 of 3,L27R+Y29Q+S55K
4.76,2 of 3,R28T+N33R+P54G
3.83,3 of 3,S26C+Y31S+N52R
not detected,0 of 3,G24V+D25C+R53V
2.18,3 of 3,S92N+S93Y
2.15,3 of 3,S26I+S92W+F98V
4.45,1 of 3,R28W+R53Y+S92Y
3.84,2 of 3,G24S+N33F+S88I
2.70,3 of 3,E23Q+L27T+Q96E
3.53,2 of 3,P54K+F95R+Q96L
1.86,3 of 3,Y29G+Y30C+P54A
1.48,3 of 3,D25L+S26F+Y30N
3.03,3 of 3,Y29L+N52E+G94P
2.09,3 of 3,R28N+S93R+G94M
3.45,1 of 3,N51V+R53S+P54G
2.84,3 of 3,S26E+K50S
1.64,3 of 3,Y30M+K50G+V97K
4.07,2 of 3,G24D+Y29H+N51V
1.90,3 of 3,A32P+K50L+S93T
3.71,2 of 3,L27H+Q96G
3.18,3 of 3,Y30R+P54F+G94K
3.73,3 of 3,G24K+S88N+S93A
2.66,3 of 3,G24A+N52T+F95Y
4.64,2 of 3,N51I+R90V+Q96T
2.61,3 of 3,F95D+V97D
not detected,0 of 3,S55L+D91K+S92A
2.77,3 of 3,L27S+Y29P+S93V
3.88,2 of 3,G24L+S26C+N33K
2.99,3 of 3,D25G+P54V+F95V
3.69,2 of 3,N33P+G49T+R53I
4.58,3 of 3,G49A+N51E+Q96G
4.08,2 of 3,A32S+D91I+Q96N
4.03,2 of 3,G49C+R53K+G94D
1.75,3 of 3,S26L+Y29H+S89H
4.78,2 of 3,E23I+G49Y+S92Y
3.35,1 of 3,L27T+A32W+D91T
3.89,2 of 3,N51F+R53Q+S88V
3.42,3 of 3,Y30C+A32L+P54Y
not detected,0 of 3,G24P+S93I+F98D
4.90,1 of 3,D25R+N51F+V97T
0.93,3 of 3,D25T+Y31D+R90F
3.88,3 of 3,K50Y+R53N+F98D
3.33,1 of 3,R90L+S93T

The opening 13 entries, copied out:

changes,mean log10 Kd (nM),seen in
Y31P+D91P+Q96T,3.83,1 of 3
G24M+L27F+Y30R,2.82,3 of 3
G24D+P54F+S88Q,not detected,0 of 3
E23N+Y29M+F98E,2.99,3 of 3
G24F+Y30K+N51I,3.60,1 of 3
G24F+Y30Q+S89D,1.77,3 of 3
N51M+S93V+F95E,4.23,1 of 3
D25V+S88I+F98V,4.09,2 of 3
D25K+Y29C+Y30D,2.51,3 of 3
Y31Q+R53E+P54C,3.96,3 of 3
P54A+S93P+G94V,3.63,2 of 3
D25M+N33D+S88F,not detected,0 of 3
E23S+S92E,1.84,3 of 3

Data: MIT Lincoln Laboratory AlphaSeq set, Engelhart et al. 2022, doi:10.1038/s41597-022-01779-4, as distributed in FLAb.